Results on one molecule are retold here after patent US10376475B2, “Method of use” (Dermavant Sciences GmbH, priority 2014, dated 2019).

In this experiment the test system is IL-17. As to the kind of experiment: IL-17 secretion by pre-existing (differentiated) Th17 polarized cells after TCR stimulus. The conditions noted are these: 24 hours treatment, 0.01-30 μM.

`CC(C)c1c(O)cc(/C=C/c2ccccc2)cc1O` [Compound 1]: the IL-17 secretion entry was “reduced IL-17 secretion in a concentration dependent manner”.
